## Apparent affinities of Ab-14 variants for a coronavirus HR2 peptide

From the AlphaSeq antibody data of Li et al. 2023 (doi:10.1038/s41467-023-39022-2), copy in the FLAb collection.

All variants were tested on one target, the spike HR2 peptide PDVDLGDISGINAS (SARS-CoV-2).

Parent scFv Ab-14: VH joined to VL by three GGGGS repeats. Changes lie in the heavy chain CDRs alone.
VH: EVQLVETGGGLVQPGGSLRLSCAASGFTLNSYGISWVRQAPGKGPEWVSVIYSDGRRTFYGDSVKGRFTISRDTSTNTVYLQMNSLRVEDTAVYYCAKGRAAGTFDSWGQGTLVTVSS
VL: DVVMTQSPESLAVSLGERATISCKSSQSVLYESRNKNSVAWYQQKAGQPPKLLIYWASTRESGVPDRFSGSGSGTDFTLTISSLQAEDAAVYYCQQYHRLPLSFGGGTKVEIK

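The parent was found by panning a naive human phage display library on the peptide. This is the validation round: designs drawn from the data on random variants, tested in the same kind of assay. Their group label is 14H_En_HC (En: ensemble of fine-tuned language models; HC: hill climbing; a sequence that several methods proposed may carry one label only). The assay is AlphaSeq: two haploid yeast populations carry antibody and antigen on their surface. Mating (16 h, 30 °C) was followed by selection of diploids and sequencing of their barcodes. Scores were corrected for input abundance and mapped to Kd with protein pairs of known affinity run in the same pool. Mating was done six times.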

Variants are written as CDR1, CDR2 and CDR3 of the heavy chain (limits as in the source). Parent: GFTLNSYGIS, VIYSDGRRTFYGDSVK, GRAAGTFDS.
Numbers give log10(Kd / nM), so 0 is 1 nM and 3 is 1 µM. Smaller is tighter.
Averages over replicates are reported, and they cover detected replicates only.
Where no diploid with the target was found in that replicate, the entry reads "ND": below detection, most likely a poor binder, though not proof of it.
The parent sequence was in this pool as ten entries: three were never detected, three once, and four in most replicates, with averages from 0.34 to 2.37.

CDR-H1,CDR-H2,CDR-H3,"replicates, log10 nM","log10 Kd (nM), mean",control signals
GFDLNEYGIS,VIYADGRRTQYIDSVK,GEQAGTFDN,2.14 1.75 1.59 1.55 1.79 3.00,1.97,0/18
GFDLNEYGIS,VIYADGVRTFYVDSVK,GVNAGTFDS,ND ND ND ND ND 1.41,1.41,0/18
GFDLNEYGIS,VIYADGRRTQYIDSVK,GEIAGTFDE,ND 1.50 1.42 0.68 ND 1.42,1.25,1/18 (1.99)
GFDLNEYGIS,VIYADGRRTSYIDSVK,GEAAGTFDS,0.18 0.08 -0.13 -0.11 0.21 0.41,0.11,0/18
GFDLNEYGIS,VIYADGMRTHYADSVK,GNEAGTFDS,-0.18 -0.44 -0.37 -0.58 -0.28 -0.14,-0.33,1/18 (1.64)
GFDLDEYGIS,VIYADGRRTFYQDSVK,GEVAGTFDV,-0.15 -0.27 -0.09 -0.36 -0.26 -0.21,-0.22,0/18
GFDLNEYGIS,VIYADGMRTQYIDSVK,GEVAGTFDA,0.21 0.95 0.09 0.02 0.36 0.46,0.35,0/18
GFDLNEYGIS,VIYADGRRTQYIDSVK,GNEAGTFDT,-0.25 -0.70 -0.43 -0.20 -0.27 -0.51,-0.39,0/18
GFDLNEYGIS,VIYADGQRTFYADSVK,GTAAGTFDQ,-0.18 -0.33 -0.65 -0.67 -0.43 -0.25,-0.42,1/18 (1.50)
GFDLNEYGIS,VIYADGRRTFYKDSVK,GENAGTFDS,0.48 -0.23 1.27 ND ND -0.32,0.30,0/18
GFNLNEYGIS,VIYADGRRKAYADSVK,GNTAGTFDS,-0.37 -0.53 -0.62 -0.69 -0.59 -0.38,-0.53,0/18
GFNLDEYGIS,VIYADGRRTFYTDSVK,GEVAGTFDV,-0.32 -0.57 -0.72 -0.51 -0.67 -0.37,-0.53,0/18
GFDLNEYGIS,VIYADGRRTFYIDSVK,GTVAGTFDS,0.16 -0.64 1.57 0.99 -0.67 0.05,0.24,0/18
GFDLDEYGIS,VIYADGRRTFYQDSVK,GGNAGTFDQ,-0.23 0.05 -0.43 -0.24 -0.65 -0.09,-0.27,0/18
GFDIDEYGIS,VIYADGRRSFYADSVK,GTNAGTFDI,0.08 0.05 0.51 0.16 0.67 0.48,0.33,2/18 (2.88)
GFQLDEYGIS,VIYADGRRTFYSDSVK,GEVAGTFDS,0.00 -0.10 -0.42 -0.03 -0.27 -0.32,-0.19,0/18
GFDLNEYGIS,VIYADGSRTFYADSVK,GEVAGSFDQ,-0.22 -0.40 -0.85 -0.48 -0.45 -0.53,-0.49,0/18
GFDINEYGIS,VIYADGRRTFYADSVK,GNQAGTFDL,0.04 -0.14 -0.39 -0.25 0.14 0.19,-0.07,0/18
GFDINEYGIS,VIYADGRRTAYADSVK,GETAGTFDV,-0.01 -0.57 -0.25 -0.56 -0.52 -0.06,-0.33,0/18
GFDLNEYGIS,VIYADGRRTSYIDSVK,GNVAGTFDI,-0.07 -0.22 -0.33 -0.39 -0.21 0.29,-0.16,0/18
GFDLNEYGIS,VIYADGRRTYYIDSVK,GEIAGTFDV,1.57 0.01 0.12 -0.02 0.08 0.40,0.36,0/18
GFDLNEYGIS,VIYADGMRTFYADSVK,GNIAGTFLS,ND 0.98 ND ND ND 1.53,1.25,0/18
GFDLDEYGIS,VIYADGKRTFYADSVK,GSNAGTFDM,-0.14 -0.34 -0.39 -0.21 -0.36 -0.26,-0.28,0/18
GFNLNEYGIS,VIYADGRRTFYSNSVK,GEIAGTFDV,-0.42 -0.65 -0.67 -0.86 -0.73 -0.44,-0.63,0/18
GFDLEDYGIS,VIYADGQRTFYADSVK,GNVAGTFDV,0.18 -0.21 0.39 -0.33 -0.44 -0.62,-0.17,0/18
GFDLNEYGIS,VIYADGRRTAYIDSVK,GEIAGTFDS,0.19 0.03 -0.23 -0.10 -0.26 -0.07,-0.07,1/18 (1.65)
GFDLNEYGIS,VIYADGRRTAYSDSVK,GTNAGTFDM,-0.25 -0.41 -0.74 -0.63 -0.82 -0.40,-0.54,0/18
GFDLNEYGIS,VIYADGRRTFYADSVK,GSNAGTFNM,0.03 -0.10 -0.04 -0.20 0.04 0.29,0.00,0/18
GFDLNEYGIS,VIYADGKRTFYADSVK,GQAAGTFTL,0.60 0.44 0.35 0.25 0.67 0.36,0.44,0/18
GFDLNEYGIS,VIYADGRRTAYTDSVK,GVEAGTFDL,ND ND ND ND ND ND,ND,1/18 (1.77)
GFDLNEYGIS,VIYADGRRTFYADSVK,GSEAGTFNV,-0.73 -0.54 -0.72 -1.00 -0.51 -0.47,-0.66,0/18
GFDLNEYGIS,VIYADGRRTFYSDSVK,GEVGGTFDS,-0.11 -0.57 -0.22 -0.59 -0.35 -0.25,-0.35,0/18
GFDLEEYGIS,VIYADGRRTAYSDSVK,GEAAGTFDS,-0.13 -0.68 -0.73 -0.28 -0.89 -0.23,-0.49,0/18
GFGLDEYGIS,VIYADGRRTFYADSVK,GENAGTFDI,0.59 0.88 1.08 1.24 0.54 1.36,0.95,0/18
GFDLNEYGIS,VIYADGRRTAYLDSVK,GEVAGTFDS,-0.01 -0.55 -0.60 -0.11 -0.78 -0.42,-0.41,0/18
GFNLEDYGIS,VIYADGMRTFYADSVK,GEVAGTFDV,-0.20 -0.13 -0.28 0.15 -0.29 0.21,-0.09,0/18
GFDLNEYGIS,VIYADGRRTFYSDSVK,GENAGFFDV,ND ND ND ND ND ND,ND,0/18
GFDLNEYGIS,VIYADGRRTFYIDSVK,GEIAGTFNV,-0.25 -0.66 -0.51 -0.54 -0.39 -0.27,-0.44,0/18
GFDLNDYGIS,VIYADGRRTAYIDSVK,GEVAGTFDI,-0.89 -1.39 -1.73 ND -1.81 -0.18,-1.20,0/18
GFNLDEYGIS,VIYADGRRTFYADNVK,GEVAGTFDI,-0.63 -0.59 -0.14 -0.68 -0.84 -0.46,-0.56,1/18 (2.20)
GFDLNEYGIS,VIYADGRRTAYADSVK,GEYAGTFDI,ND ND 0.58 -0.66 -0.28 -0.02,-0.09,0/18

From the list, the first 2 with no signal in any replicate:

CDR-H1,CDR-H2,CDR-H3,"replicates, log10 nM","log10 Kd (nM), mean",control signals
GFDLNEYGIS,VIYADGRRTAYTDSVK,GVEAGTFDL,ND ND ND ND ND ND,ND,1/18 (1.77)
GFDLNEYGIS,VIYADGRRTFYSDSVK,GENAGFFDV,ND ND ND ND ND ND,ND,0/18

As a blank, each scFv also met three strains without target: over all heavy chain designs, 1% of these pairings were detected, typically at 2.08 and seldom below 0.84. For each scFv, signals with the empty controls are counted beside the result, with their mean in brackets.
The range of this assay differs from that of the first round, and the authors advise against merging the two.
In the paper, a design with two or fewer of six values counts as a poor binder.